Measured values reported in patent US8614223B2, “Pyrimidine hydroxy amide compounds as protein deacetylase inhibitors and methods of use thereof” (Acetylon Pharmaceuticals, Inc., priority 2010, dated 2013).

By UniProt entry, the sequences of proteins in these tests, tags left out. Where a name states a change or a piece, a line headed by the entry shows the natural chain unless it says otherwise.
UniProt Q13547, whole entry: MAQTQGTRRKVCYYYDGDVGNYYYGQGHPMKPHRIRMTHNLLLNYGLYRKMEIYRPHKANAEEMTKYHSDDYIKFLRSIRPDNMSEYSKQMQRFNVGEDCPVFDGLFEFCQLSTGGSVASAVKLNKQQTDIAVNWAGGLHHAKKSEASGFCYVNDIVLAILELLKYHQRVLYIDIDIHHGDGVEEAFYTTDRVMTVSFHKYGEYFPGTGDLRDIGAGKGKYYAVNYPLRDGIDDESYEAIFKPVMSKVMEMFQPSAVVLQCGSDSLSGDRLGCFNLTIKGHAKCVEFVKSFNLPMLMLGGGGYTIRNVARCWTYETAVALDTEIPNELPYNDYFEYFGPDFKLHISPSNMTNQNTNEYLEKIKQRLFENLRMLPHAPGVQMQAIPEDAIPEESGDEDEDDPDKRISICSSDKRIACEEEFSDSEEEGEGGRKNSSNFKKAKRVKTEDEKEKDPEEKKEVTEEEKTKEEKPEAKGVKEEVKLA
UniProt Q92769, whole entry: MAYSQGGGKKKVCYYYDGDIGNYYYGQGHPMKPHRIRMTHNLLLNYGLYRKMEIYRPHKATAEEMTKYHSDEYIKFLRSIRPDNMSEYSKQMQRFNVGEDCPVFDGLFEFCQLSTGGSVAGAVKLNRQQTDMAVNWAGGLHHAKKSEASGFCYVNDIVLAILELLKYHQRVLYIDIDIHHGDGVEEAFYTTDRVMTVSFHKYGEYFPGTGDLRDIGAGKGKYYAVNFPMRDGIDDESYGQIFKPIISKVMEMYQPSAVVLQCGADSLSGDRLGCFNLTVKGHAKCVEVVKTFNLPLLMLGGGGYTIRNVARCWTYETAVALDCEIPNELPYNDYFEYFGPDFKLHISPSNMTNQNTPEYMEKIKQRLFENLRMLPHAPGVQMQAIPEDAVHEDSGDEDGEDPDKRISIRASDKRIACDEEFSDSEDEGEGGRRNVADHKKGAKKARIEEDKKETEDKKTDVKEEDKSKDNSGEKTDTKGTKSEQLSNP
UniProt O15379: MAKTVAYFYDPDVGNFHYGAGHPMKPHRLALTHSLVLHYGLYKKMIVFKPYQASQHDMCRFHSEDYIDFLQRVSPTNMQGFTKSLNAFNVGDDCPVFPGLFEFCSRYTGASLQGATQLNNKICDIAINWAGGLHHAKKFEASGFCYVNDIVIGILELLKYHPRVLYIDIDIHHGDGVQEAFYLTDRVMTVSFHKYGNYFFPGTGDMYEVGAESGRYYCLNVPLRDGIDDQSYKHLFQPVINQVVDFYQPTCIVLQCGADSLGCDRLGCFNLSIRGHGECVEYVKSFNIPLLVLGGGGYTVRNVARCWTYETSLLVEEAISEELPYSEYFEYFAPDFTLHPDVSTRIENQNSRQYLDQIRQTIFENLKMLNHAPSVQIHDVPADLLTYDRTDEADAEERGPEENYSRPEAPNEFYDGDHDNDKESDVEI

Key:
HDAC1 = HDAC1 (Homo sapiens (Human), UniProt Q13547); experiment: HDAC enzyme assay, HDAC1; details: ratio HDAC1/HDAC6
HDAC2 = HDAC2 (Homo sapiens (Human), UniProt Q92769); experiment: HDAC enzyme assay, HDAC2; details: ratio HDAC2/HDAC6
HDAC3 = HDAC3 (Homo sapiens (Human), UniProt O15379); experiment: HDAC enzyme assay, HDAC3; details: ratio HDAC3/HDAC6

Row | HDAC1 fold over HDAC6 IC50 (selectivity for HDAC6) (HDAC1) | HDAC2 fold over HDAC6 IC50 (selectivity for HDAC6) (HDAC2) | HDAC3 fold over HDAC6 IC50 (selectivity for HDAC6) (HDAC3) | Compound
1 | (21.4x) | (28.4x) | (31.2x) | O=C(NO)c1cnc(NCc2ccc3c(c2)OCO3)nc1 [Compound 46]
2 | (99.5x) | (154x) | (138.1x) | COc1cc(F)ccc1CNc1ncc(C(=O)NO)cn1 [Compound 49]
3 | (202.9x) | (370x) | (511.4x) | CC(C)(Nc1ncc(C(=O)NO)cn1)c1ccccc1F [Compound 71]
